# Yeast mating assay 2: variants of the scFv Ab-91

Target peptide (SARS-CoV-2 spike, HR2 region): PDVDLGDISGINAS

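Phage display of a naive human antibody library on the peptide gave the parent. Library AAYL51 holds single substitutions and randomly drawn double and triple substitutions in the CDRs. In AlphaSeq, yeast of one mating type display the scFv and yeast of the other type display the target. The frequency of each diploid, read from paired DNA barcodes, reflects how well the two displayed proteins bind. Scores were corrected for input abundance and mapped to Kd with protein pairs of known affinity run in the same pool. Mating was done three times.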

Parent: Ab-91, a human scFv built as VL, a 15-residue (Gly4Ser)3 linker, VH. Only the CDRs of the heavy chain vary.
VL: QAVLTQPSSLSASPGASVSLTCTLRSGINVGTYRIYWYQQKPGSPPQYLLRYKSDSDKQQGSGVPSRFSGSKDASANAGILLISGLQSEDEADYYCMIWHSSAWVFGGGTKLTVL
VH: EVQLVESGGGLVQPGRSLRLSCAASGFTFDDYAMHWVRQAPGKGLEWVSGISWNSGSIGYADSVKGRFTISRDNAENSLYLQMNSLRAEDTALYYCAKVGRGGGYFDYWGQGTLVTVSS

Variants are written as CDR1, CDR2 and CDR3 of the heavy chain (limits as in the source). Parent: GFTFDDYAMH, GISWNSGSIGYADSVK, VGRGGGYFDY.
Affinities are written as log10 Kd with Kd in nM; a lower number is a better binder.
Replicates are averaged; those with no signal do not enter the mean.
"nd" marks a missing value. The strain was present, yet no cells mated with the target were sequenced in that replicate, which points to weak or no binding.

CDR-H1	CDR-H2	CDR-H3	replicates, log10 nM	log10 Kd (nM), mean	empty controls
GFTFDRYADH	GISWNSGSIGYADSVK	VERGGGYFDY	3.84 / nd / nd	3.84	2 of 9 (4.35)
GFTFDDYIMC	EISWNSGSIGYADSVK	VGRGGGYFDY	nd / 3.43 / nd	3.43	0 of 9
GFTTDDYAFH	GISWNSGSIGYADSGK	VGRGGGYFDY	nd / nd / 4.61	4.61	0 of 9
GFTFNDYAMH	GISINSGSIYYADSVK	VGRGGGYFDY	3.39 / 5.60 / nd	4.50	1 of 9 (3.36)
GFTHDDYAMH	GISWNSGSIGYADSVF	VGRGGGYFDY	1.17 / 0.92 / 0.60	0.90	4 of 9 (3.78)
GFTFDDYAMH	GISWNPGSIGYADSVK	VGRGMDYFDY	3.81 / 4.46 / nd	4.14	0 of 9
GFTFDDYAMH	GISWNSGSIGYADSCK	VGRGGGYFCY	4.74 / 4.63 / nd	4.69	6 of 9 (5.16)
GFTFDDYAMH	GSSWNSGSIGYADSTW	VGRGGGYFDY	4.89 / nd / 5.01	4.95	4 of 9 (4.37)
GFTFDDYAMW	GISWNSGHIGYADSVK	VGRGGGYFTY	3.11 / nd / nd	3.11	3 of 9 (3.50)
GFTFDDYAYH	GISWNAGSIGYADSVK	VGRGGGYFDY	1.82 / 1.76 / 0.63	1.41	1 of 9 (4.97)
NFTFPDYAMN	GISWNSGSIGYADSVK	VGRGGGYFDY	4.56 / 5.43 / nd	4.99	3 of 9 (4.92)
GNTFDDYAMH	GISWNSGSIGYMDSVY	VGRGGGYFDY	nd / nd / nd	nd	3 of 9 (3.66)
GFTFDDYAMH	GISWNSASKGYADSVK	VGRGGGYKDY	1.11 / nd / nd	1.11	0 of 9
GFTFDDYMMW	GISWNSGSIGRADSVK	VGRGGGYFDY	nd / nd / nd	nd	1 of 9 (5.10)
GFTFDDYAMH	GISDNSGSIGYADSVK	VGRKGGYYDY	nd / nd / nd	nd	4 of 9 (4.34)
GFYFDDYAMS	GISWNSGSIGYADFVK	VGRGGGYFDY	nd / nd / nd	nd	0 of 9
GFTFDDYAMH	PISWNSGSIGYADSVK	VGRGGGYFDY	4.77 / nd / nd	4.77	0 of 9
GFTFDDYAMV	GISWNSGSICYADTVK	VGRGGGYFDY	nd / nd / 5.40	5.40	5 of 9 (4.69)
GFTFDDYAMH	GISWNSGSIGYADSVK	VGRGGYYFSH	3.72 / nd / nd	3.72	0 of 9
GFTMDDYAMH	GISWNSGSIGYHDSVK	VGRGGGYPDY	nd / nd / nd	nd	1 of 9 (4.11)
CFTFDDYAMH	GISWNSGSIGYADSVK	VGDGGGYFIY	nd / 3.94 / nd	3.94	0 of 9
GFTFDDYAMH	GIWWNSGCIGYADSVK	VGRGGGYFSY	4.81 / nd / nd	4.81	1 of 9 (4.85)
GGTFDDYASH	GISWQSGSIGYADSVK	VGRGGGYFDY	nd / nd / 2.37	2.37	2 of 9 (4.09)
GFMFDDYAMH	GISWNSGSDGYADSVK	VGRGGGYMDY	nd / 5.43 / 4.67	5.05	7 of 9 (4.46)
IFTFDDYAMH	GISWNSGGIGYADSVK	VGRGGGKFDY	nd / 5.05 / 5.40	5.22	4 of 9 (4.57)
GFTFLDYAQH	GISWNSGSIGYADSVE	VGRGGGYFDY	nd / nd / nd	nd	0 of 9
GFTFDDYVMH	GISSNSGSIGYADSVK	VGRGGGYMDY	nd / nd / nd	nd	0 of 9
GFTFDDYAMH	GISWNSGSIGYDDSVK	VGRGGGYCWY	nd / nd / nd	nd	2 of 9 (4.21)
GFWFDDYAMH	GISWNSGSIGYADSVK	VGVRGGYFDY	nd / nd / nd	nd	2 of 9 (4.73)
GFTFDLYAMH	GISANSGSIKYADSVK	VGRGGGYFDY	nd / nd / nd	nd	1 of 9 (3.48)
SFTFDDYAGH	GISWNSGSIGYADSVK	VGRGTGYFDY	nd / nd / nd	nd	0 of 9
WFTFDDYAMH	AISWNSNSIGYADSVK	VGRGGGYFDY	4.40 / nd / nd	4.40	3 of 9 (3.94)
GFHFNDYAMH	GISWNSGSIGYEDSVK	VGRGGGYFDY	3.74 / nd / nd	3.74	1 of 9 (3.39)
GFTWDDYAMH	GISWNSGSIGYADSVK	VGRGGGYFDY	4.34 / nd / nd	4.34	2 of 9 (5.07)
GFTFDDYATH	GIAWNSDSIGYADSVK	VGRGGGYFDY	4.93 / nd / 4.09	4.51	5 of 9 (5.00)
GFTFDDYAMH	GISWNSGSIGYASSVK	VGRGGGYFDY	2.15 / 2.04 / 1.96	2.05	5 of 9 (5.06)
GFTFDDYAMH	GISWNKGSIGVADSVK	VGLGGGYFDY	nd / nd / nd	nd	0 of 9
GFTFDDYAMH	GISWNSGPVGYADSVK	VDRGGGYFDY	nd / nd / nd	nd	0 of 9
GFTFSDKAML	GISWNSGSIGYADSVK	VGRGGGYFDY	nd / nd / nd	nd	0 of 9
GFTFDDYAMH	GISWNSGSIGYATSVK	VGTGGGHFDY	2.70 / 3.07 / 2.76	2.84	3 of 9 (4.29)
GFTFDDYAMH	GIEWNSGSIGYADSVQ	VGRGGGYFDY	nd / nd / nd	nd	0 of 9
GFTFDDYNMH	GIKWNSGSIGYADSVK	VGRVGGYFDY	nd / 5.04 / nd	5.04	1 of 9 (2.81)
GFTFDDYEMH	GISWNMFSIGYADSVK	VGRGGGYFDY	nd / 6.28 / nd	6.28	4 of 9 (4.69)

4 of these entries, quoted again:

CDR-H1	CDR-H2	CDR-H3	replicates, log10 nM	log10 Kd (nM), mean	empty controls
GFTFDDYAMH	GIEWNSGSIGYADSVQ	VGRGGGYFDY	nd / nd / nd	nd	0 of 9
GFTFDDYAMH	GISWNSGSIGYADSVK	VGRGGYYFSH	3.72 / nd / nd	3.72	0 of 9
GFTWDDYAMH	GISWNSGSIGYADSVK	VGRGGGYFDY	4.34 / nd / nd	4.34	2 of 9 (5.07)
GFTFDDYMMW	GISWNSGSIGRADSVK	VGRGGGYFDY	nd / nd / nd	nd	1 of 9 (5.10)

As a blank, each scFv also met three strains without target: over library AAYL51, 21% of these pairings were detected, typically at 4.54 and seldom below 3.26. The control count says in how many pairings with the empty strains this scFv gave a signal, with their mean in brackets.

Source: Engelhart et al. 2022 (doi:10.1038/s41597-022-01779-4), MIT Lincoln Laboratory and A-Alpha Bio; data file from the FLAb repository.